# Values quoted from earlier work in paper PMC9781958, “Next-Generation Heterocyclic Electrophiles as Small-Molecule Covalent MurA Inhibitors” (Pharmaceuticals, 2022).
# Chains of the proteins cited; added tags and fusions are not shown.
# UniProt P0A749, whole entry: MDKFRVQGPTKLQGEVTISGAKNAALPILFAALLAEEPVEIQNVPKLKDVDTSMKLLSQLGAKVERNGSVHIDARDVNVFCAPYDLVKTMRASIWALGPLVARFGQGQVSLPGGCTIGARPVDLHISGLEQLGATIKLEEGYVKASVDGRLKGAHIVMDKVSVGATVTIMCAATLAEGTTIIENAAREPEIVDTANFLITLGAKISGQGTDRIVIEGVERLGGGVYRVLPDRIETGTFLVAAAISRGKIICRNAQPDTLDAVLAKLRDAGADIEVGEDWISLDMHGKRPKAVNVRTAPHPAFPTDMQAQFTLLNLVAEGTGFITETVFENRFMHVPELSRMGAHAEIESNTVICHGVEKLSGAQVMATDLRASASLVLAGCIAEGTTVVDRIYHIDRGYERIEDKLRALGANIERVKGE
# Target: E. coli MurA (UDP-N-acetylglucosamine 1-carboxyvinyltransferase, EC:2.5.1.7) (Escherichia coli, UniProt P0A749)
# Conditions: cited from earlier work
row,Structure (SMILES),IC50
1,Ic1ncccn1,309 µM
2,Ic1ccncc1,70 µM
3,C#Cc1ccncc1,408 µM
4,Brc1cncs1,77 µM
